Measured values reported in patent US6810371B1 (priority 1906, dated 2004).
Read-outs that look alike come from different tables or passages of the source.

Method: Finally, if it is judged to be safe at S8, S12, or S15, overall safety is evaluated. Here, the sum of respective reciprocals of the previously determined inhalation safety coefficient, percutaneous safety coefficient, and oral safety coefficient is determined, and the reciprocal of thus determined value is defined as an overall safety coefficient (S16).
inhalation safety coefficient=inhalation non-influential amount [mg/kg/day]/estimated exposure amount in inhalation [mg/kg/day]
percutaneous safety coefficient=percutaneous non-influential amount [mg/kg/day]/estimated percutaneous exposure amount [mg/kg/day]
oral safety coefficient=oral non-influential amount [mg/kg/day]/estimated oral exposure amount [mg/kg/day]

Structure (SMILES): CC(C)=CC1[C@@H](C(=O)OCN2C(=O)C3=C(CCCC3)C2=O)C1(C)C (stereo in doubt) [d-tetramethrin]
- INHALATION (WINDOW CLOSED) safety coefficient (ADULT): 3,190
- INHALATION (WINDOW OPEN) safety coefficient (ADULT): 15,900
- PERCUTANEOUS safety coefficient (ADULT): 2,280,000
- TOTAL (WINDOW CLOSED) safety coefficient (ADULT): 3,180
- TOTAL (WINDOW OPEN) safety coefficient (ADULT): 15,800
- INHALATION (WINDOW CLOSED) safety coefficient (INFANT): 2,880
- INHALATION (WINDOW OPEN) safety coefficient (INFANT): 14,400
- ORAL safety coefficient (INFANT): 100,000
- PERCUTANEOUS safety coefficient (INFANT): 465,000
- TOTAL (WINDOW CLOSED) safety coefficient (INFANT): 2,780
- TOTAL (WINDOW OPEN) safety coefficient (INFANT): 12,200
